# Binding of CDR-mutated scFvs to a peptide of the spike HR2 region

The target is the same throughout: PDVDLGDISGINAS, from the HR2 region of SARS-CoV-2 spike.

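The parent was found by panning a naive human phage display library on the peptide. In library AAYL52, one, two or three CDR residues were substituted; doubles and triples were drawn at random. AlphaSeq pools MATa yeast showing the antibodies with MATalpha yeast showing the peptide. After mating in shaken culture at 30 °C for 16 h, diploids were selected and their barcode pairs sequenced. Read counts were normalised to the haploid input and turned into Kd by a linear fit to BCL2-family pairs of known affinity, for each replicate. There are three technical replicates.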

Ab-95 is the parent antibody, in scFv form: VH, then a (GGGGS)3 linker, then VL. The heavy chain is unchanged in all variants.
VH: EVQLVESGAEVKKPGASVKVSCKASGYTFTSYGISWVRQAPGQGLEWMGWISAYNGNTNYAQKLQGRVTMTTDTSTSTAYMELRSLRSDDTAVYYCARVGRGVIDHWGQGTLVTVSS
VL: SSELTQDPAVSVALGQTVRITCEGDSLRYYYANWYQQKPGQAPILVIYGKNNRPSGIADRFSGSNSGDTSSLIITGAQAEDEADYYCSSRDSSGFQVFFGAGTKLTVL

Substitutions are numbered in sequence along the VL above, starting at 1 (not Kabat). This list gathers variants with a substitution at K50 (VL, numbered from residue 1). Each Kd is an estimate from the mating assay, the geometric mean of the replicates in which the pair was seen; lower is stronger. Where no diploid with the target was found in any replicate, the entry reads "nd": below detection, most likely a poor binder, though not proof of it.

Variant K50G/D91N/S93V gave 2.5 µM (2 of 3 replicates; controls 1 of 9). With L27S/K50S the result was 12 µM (2 of 3 replicates; controls 3 of 9). Variant L27W/K50E/R90D gave 14 µM (3 of 3 replicates; controls 2 of 9). For K50Y/P54E/F95D, the assay gave 22 µM (2 of 3 replicates; controls 3 of 9). With K50F/D91N/V97S the result was nd (0 of 3 replicates; controls 1 of 9). Variant K50R/N52K/S92K showed 370 nM (2 of 3 replicates; controls 0 of 9). For K50E/S55W/S92N, the assay gave 160 nM (3 of 3 replicates; controls 1 of 9).

With Y29T/K50N/R53E the result was 7.8 µM (1 of 3 replicates; controls 2 of 9). For R28E/K50F, the assay gave 2.1 µM (3 of 3 replicates; controls 3 of 9). Variant D25F/Y29M/K50A showed 8.1 µM (3 of 3 replicates; controls 1 of 9). With K50F/P54Y/S55Y the result was nd (0 of 3 replicates; controls 1 of 9). With A32Y/K50W/S88W the result was 23 µM (1 of 3 replicates; controls 0 of 9). For K50A/S88I/S89D, the assay gave 29 µM (2 of 3 replicates; controls 2 of 9). Variant G24T/D25A/K50I showed 39 µM (2 of 3 replicates; controls 5 of 9).

Variant G49W/K50C/V97A gave nd (0 of 3 replicates; controls 0 of 9). Variant K50Q/R90S/F98S showed 1.2 µM (1 of 3 replicates; controls 3 of 9). Variant K50T/P54C/V97Q showed 2.2 µM (2 of 3 replicates; controls 1 of 9). Variant L27R/K50R/N51S gave nd (0 of 3 replicates; controls 4 of 9). For L27V/K50Y/S88N, the assay gave 13 µM (3 of 3 replicates; controls 3 of 9). With S26Q/K50L/F98S the result was 12 µM (3 of 3 replicates; controls 3 of 9). Variant E23Q/Y29W/K50C showed 8.6 µM (3 of 3 replicates; controls 5 of 9).

Variant L27W/K50Q/S92C gave 4.5 µM (2 of 3 replicates; controls 2 of 9). For Y31L/K50V/V97Y, the assay gave 240 nM (2 of 3 replicates; controls 0 of 9). Variant K50D/R90Q gave 110 nM (3 of 3 replicates; controls 2 of 9). Variant K50W/F95R/Q96C showed nd (0 of 3 replicates; controls 1 of 9). With Y29T/K50F the result was 680 nM (3 of 3 replicates; controls 3 of 9). For K50P/N51F/F95K, the assay gave 3.6 µM (3 of 3 replicates; controls 3 of 9). With G24C/K50N/V97H the result was 37 µM (2 of 3 replicates; controls 4 of 9).

For K50Y/G94Y, the assay gave 530 nM (2 of 3 replicates; controls 4 of 9). For K50D/F98V, the assay gave 34 nM (3 of 3 replicates; controls 9 of 9). Variant Y29Q/K50M/F98P gave 500 nM (3 of 3 replicates; controls 5 of 9). Variant K50M/N52M/R53H gave 620 nM (3 of 3 replicates; controls 2 of 9). For E23H/K50P/Q96M, the assay gave 810 nM (3 of 3 replicates; controls 3 of 9).

Top 4 of the variants detected in all replicates, tightest first:

changes,Kd (apparent),replicates with signal,control signals
K50D/F98V,34 nM,3 of 3,9 of 9
K50D/R90Q,110 nM,3 of 3,2 of 9
K50E/S55W/S92N,160 nM,3 of 3,1 of 9
Y29Q/K50M/F98P,500 nM,3 of 3,5 of 9

In this assay the parent's reference entry averaged 200 nM; its copy inside this library read 180 nM. As a blank, each scFv also met three strains without target: over library AAYL52, 28% of these pairings were detected, typically at 8.2 µM and seldom below 800 nM. The control count says in how many pairings with the empty strains this scFv gave a signal.

Reference: Engelhart et al. 2022, doi:10.1038/s41597-022-01779-4. File: FLAb, binding data.